Consider one compound from patent publication US7357914B2, “Use of metal chelates in human or animal feeding” (Agristudio S.R.L., priority 2002, dated 2008).

A short description of the series: feeding test in weaned pigs, zinc source in food (growth, zinc retention, tissue minerals). Format: in vivo. As for the experimental part: Two test groups of pigs (Control and Test) of 35 days of age and weaned at 19 days, were administered a food differing only in the zinc source. […] The two groups of animals were balanced by nest, living weight and sex and were fed for 27 days. Other 4 animals were immediately sacrificed and a sampling was made of them according to the following procedure. The two groups of animals were weighed before starting the test and after 27 days. At the end of the test the pigs were sacrificed and stomach, intestine, left kidney and liver were removed from every pig. Stomach and intestine were emptied and weighed again so as to obtain the net weight of said organs. A sample of kidney, liver and brain was taken and frozen. Stomach, intestine, left kidney and liver were then put together with the remaining carcass and homogenized with a mixer. A sample was then taken from the mass thus obtained and frozen. The samples were then dehydrated with a dehydrating device and underwent chemical analysis. The level of zinc, copper and iron were determined on the lyophilized samples by atomic absorption spectroscopy. The body levels of zinc were referred to the product. On the basis of the body's “net” weight (i.e. without the content of the digestive tube) and of its content of zinc at test beginning and end it was possible to determine also daily zinc retention.

Turning to `O=S(=O)([O-])[O-].[Zn+2]` [zinc sulfate, reference compound], the Conversion index (50 ppm zinc from the source in food) came out at 1.72. For the same compound, the “Liver Iron content” value (lyophilized samples, atomic absorption) amounted to 199.
